Values quoted from earlier work as cited in patent US20130085131A1, “HETEROCYCLIC COMPOUNDS AND THEIR USES” (Amgen Inc., priority 2010, published 2013).

The chains behind the UniProt entries cited, without tags or fusion partners. Where a name states a change or a piece, a line headed by the entry shows the natural chain unless it says otherwise.
UniProt P42338: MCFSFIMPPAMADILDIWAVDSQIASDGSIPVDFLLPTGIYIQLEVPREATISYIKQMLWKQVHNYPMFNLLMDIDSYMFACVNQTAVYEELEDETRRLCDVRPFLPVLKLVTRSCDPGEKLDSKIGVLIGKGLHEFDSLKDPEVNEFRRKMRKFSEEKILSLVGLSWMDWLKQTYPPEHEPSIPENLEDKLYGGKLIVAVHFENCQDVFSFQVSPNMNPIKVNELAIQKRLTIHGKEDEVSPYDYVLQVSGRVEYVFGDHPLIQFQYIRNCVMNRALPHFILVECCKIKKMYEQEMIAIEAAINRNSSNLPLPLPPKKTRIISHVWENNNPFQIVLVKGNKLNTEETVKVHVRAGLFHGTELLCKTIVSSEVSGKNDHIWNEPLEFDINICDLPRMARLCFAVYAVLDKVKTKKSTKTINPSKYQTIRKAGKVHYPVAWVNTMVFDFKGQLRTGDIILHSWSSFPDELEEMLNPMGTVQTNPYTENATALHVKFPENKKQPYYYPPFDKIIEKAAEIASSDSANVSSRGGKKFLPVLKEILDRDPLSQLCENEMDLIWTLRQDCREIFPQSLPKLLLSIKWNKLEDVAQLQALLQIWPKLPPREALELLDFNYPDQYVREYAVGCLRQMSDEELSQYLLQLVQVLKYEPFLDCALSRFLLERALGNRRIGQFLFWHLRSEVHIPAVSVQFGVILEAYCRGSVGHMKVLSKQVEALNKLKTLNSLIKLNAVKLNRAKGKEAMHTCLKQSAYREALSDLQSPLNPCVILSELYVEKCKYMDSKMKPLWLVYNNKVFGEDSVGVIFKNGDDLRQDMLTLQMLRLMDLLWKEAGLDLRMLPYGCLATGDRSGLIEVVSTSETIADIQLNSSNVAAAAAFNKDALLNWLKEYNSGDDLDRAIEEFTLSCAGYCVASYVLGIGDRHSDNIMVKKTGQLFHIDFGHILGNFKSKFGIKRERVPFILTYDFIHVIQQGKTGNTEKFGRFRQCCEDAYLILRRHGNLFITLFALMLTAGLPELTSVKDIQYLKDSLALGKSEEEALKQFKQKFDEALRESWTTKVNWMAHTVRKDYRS

Target: p110β (Homo sapiens, UniProt P42338)
Details: on beta; read-out: potency on beta

Q: Which IC50 does the source give for `Cc1cc(C(C)Nc2ccccc2)c2nc(N3CCOCC3)cc(=O)n2c1` (stereo not shown) [TGX-221] here?
A: The IC50 was 7 nM.
